These are literature values, as cited in article PMC4837544, “Differential kinetic profiles and metabolism of primaquine enantiomers by human hepatocytes” (Malaria Journal, 2016).

This data set has as its system recombinant human CYP2D6. Set-up: method as in PMID 25518709. The settings on record: CYP2D6-catalyzed metabolism ref 12; cited from earlier work.

As to Primaquine-5,6-orthoquinone, the “abundance from (+)-PQ metabolism compared to (−)-PQ” value is on record as “twice as abundant”.
